Experimental findings from patent US20240043442A1, “SELECTIVE ESTROGEN RECEPTOR DEGRADERS AND USES THEREOF” (InventisBio LLC, priority 2016, published 2024) are described below.

In the experiment the test system is breast cancer cell line MCF-7. Briefly: MCF-7 cell growth study (celltiter-glo luminescent viability assay).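 Note: viability read by luminescence after compound exposure, relative to DMSO vehicle-treated wells on the same plate.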 Type of experiment: cell-based. Conditions: Homo sapiens, MCF7, 144 h, MCF-7 cells, 6 days incubation; read-out: IC50 (nM), cell growth inhibition.

Each structure is given as a SMILES string.

On to `C[C@@H]1Cc2c([nH]c3ccccc23)[C@@H](c2c(F)cc(/C=C/C(=O)O)cc2F)N1CC(C)(C)F` [AZD9496, reference compound], for which the 50% inhibitory concentration (IC50) amounted to 0.4 nM.
